Source: paper PMC5864910, “Mutacin 1140 Lantibiotic Variants Are Efficacious Against Clostridium difficile Infection” (Frontiers in Microbiology, 2018)
Read-outs that look alike come from different tables or passages of the source.

Sequences of proteins named here, by UniProt entry; tags and fusion partners are left off. A change or cut given only in a name is not applied to a line headed by its entry. Residues count along the entry.
UniProt P41145: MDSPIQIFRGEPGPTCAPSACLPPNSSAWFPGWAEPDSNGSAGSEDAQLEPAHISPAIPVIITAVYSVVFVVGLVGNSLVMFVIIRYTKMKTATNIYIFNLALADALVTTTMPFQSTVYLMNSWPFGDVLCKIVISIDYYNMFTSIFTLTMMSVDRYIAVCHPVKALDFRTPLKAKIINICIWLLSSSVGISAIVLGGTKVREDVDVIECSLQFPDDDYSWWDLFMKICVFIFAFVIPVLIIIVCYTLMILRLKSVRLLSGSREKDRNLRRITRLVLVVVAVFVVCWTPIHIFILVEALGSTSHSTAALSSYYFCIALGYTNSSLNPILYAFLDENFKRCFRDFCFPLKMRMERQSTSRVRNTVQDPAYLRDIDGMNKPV
UniProt P31645, whole entry: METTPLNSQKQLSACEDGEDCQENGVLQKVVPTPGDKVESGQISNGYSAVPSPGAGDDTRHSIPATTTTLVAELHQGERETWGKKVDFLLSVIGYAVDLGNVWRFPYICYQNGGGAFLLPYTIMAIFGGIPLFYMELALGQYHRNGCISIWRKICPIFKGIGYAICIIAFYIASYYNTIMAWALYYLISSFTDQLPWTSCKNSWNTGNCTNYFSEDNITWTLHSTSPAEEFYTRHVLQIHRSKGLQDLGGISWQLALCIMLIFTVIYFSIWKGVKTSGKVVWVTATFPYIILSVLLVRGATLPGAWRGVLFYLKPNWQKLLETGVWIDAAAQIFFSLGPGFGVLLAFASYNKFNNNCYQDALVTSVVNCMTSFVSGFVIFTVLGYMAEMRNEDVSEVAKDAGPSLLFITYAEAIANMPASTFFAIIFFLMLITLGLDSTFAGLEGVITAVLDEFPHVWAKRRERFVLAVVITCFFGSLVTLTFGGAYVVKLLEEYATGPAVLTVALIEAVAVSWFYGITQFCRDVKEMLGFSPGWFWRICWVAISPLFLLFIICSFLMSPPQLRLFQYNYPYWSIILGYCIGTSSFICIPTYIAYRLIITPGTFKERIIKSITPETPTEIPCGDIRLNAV
UniProt P08588, whole entry: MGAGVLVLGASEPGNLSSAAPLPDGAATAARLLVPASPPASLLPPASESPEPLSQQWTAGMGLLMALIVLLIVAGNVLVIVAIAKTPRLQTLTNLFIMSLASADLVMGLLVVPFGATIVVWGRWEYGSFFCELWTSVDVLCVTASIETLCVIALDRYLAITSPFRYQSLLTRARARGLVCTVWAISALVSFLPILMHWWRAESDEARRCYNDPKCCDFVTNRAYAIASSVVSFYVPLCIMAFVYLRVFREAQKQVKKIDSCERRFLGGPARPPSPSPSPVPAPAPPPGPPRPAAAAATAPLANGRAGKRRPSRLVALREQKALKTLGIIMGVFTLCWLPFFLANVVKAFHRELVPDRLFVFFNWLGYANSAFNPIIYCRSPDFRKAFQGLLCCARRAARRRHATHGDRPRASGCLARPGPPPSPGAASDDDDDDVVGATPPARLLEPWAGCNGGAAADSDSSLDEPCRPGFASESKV
UniProt Q14432: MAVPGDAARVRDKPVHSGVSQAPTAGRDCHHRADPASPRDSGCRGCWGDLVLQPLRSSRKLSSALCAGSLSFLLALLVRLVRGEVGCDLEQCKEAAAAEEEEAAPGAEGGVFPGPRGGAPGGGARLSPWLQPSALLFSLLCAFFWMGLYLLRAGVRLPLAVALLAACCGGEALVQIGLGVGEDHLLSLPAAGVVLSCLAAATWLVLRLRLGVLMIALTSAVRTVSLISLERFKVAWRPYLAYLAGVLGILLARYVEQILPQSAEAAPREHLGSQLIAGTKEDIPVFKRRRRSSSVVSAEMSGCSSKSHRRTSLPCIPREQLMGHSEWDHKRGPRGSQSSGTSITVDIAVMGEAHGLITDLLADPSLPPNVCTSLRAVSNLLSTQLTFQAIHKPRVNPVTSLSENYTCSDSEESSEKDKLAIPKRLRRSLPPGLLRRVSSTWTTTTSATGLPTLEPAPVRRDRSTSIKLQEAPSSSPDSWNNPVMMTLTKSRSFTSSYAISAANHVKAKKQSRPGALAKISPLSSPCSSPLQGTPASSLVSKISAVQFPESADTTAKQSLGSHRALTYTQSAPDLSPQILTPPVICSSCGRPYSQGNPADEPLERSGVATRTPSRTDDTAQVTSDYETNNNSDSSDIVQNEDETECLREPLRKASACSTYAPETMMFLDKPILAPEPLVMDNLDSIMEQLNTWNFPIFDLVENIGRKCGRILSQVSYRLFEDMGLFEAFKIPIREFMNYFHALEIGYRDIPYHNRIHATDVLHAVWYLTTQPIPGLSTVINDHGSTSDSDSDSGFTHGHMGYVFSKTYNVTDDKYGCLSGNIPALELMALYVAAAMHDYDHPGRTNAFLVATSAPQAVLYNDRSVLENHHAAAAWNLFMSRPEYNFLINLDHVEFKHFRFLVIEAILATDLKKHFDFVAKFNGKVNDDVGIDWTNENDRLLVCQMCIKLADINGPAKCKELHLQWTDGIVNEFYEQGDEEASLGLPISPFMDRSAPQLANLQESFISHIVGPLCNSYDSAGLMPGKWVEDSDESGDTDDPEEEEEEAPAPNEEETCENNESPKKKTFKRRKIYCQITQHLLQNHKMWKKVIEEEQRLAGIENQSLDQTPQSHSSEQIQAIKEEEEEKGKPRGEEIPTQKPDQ
UniProt P17787, 26-502: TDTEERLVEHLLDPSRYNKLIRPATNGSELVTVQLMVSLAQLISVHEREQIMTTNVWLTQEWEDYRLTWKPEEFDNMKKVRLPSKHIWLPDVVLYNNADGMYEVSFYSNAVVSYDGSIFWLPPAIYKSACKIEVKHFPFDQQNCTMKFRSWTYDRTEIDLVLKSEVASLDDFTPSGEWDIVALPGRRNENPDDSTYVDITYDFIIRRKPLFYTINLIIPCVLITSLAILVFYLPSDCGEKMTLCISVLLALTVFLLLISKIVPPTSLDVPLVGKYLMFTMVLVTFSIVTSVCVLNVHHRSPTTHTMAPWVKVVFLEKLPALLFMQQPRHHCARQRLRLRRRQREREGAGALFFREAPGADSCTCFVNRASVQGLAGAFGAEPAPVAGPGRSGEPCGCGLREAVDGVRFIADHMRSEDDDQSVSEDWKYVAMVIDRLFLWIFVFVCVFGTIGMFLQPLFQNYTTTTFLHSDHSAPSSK
UniProt P43681, 29-627 limits assumed: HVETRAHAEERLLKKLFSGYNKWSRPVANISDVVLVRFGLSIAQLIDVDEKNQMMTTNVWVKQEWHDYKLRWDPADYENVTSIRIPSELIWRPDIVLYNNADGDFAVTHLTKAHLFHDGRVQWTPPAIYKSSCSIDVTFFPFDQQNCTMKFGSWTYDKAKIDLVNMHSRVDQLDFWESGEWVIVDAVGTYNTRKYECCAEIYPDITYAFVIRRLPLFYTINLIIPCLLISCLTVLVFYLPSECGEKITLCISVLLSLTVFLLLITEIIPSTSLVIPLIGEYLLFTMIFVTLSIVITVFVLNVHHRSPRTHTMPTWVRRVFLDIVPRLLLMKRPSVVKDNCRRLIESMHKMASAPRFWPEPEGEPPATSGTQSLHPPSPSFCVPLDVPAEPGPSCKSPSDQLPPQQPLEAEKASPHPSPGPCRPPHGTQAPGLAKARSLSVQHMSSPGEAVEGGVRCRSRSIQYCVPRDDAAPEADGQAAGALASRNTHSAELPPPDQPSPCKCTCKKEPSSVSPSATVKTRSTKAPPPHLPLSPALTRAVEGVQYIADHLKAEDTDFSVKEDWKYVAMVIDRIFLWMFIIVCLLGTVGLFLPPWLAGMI
UniProt P23975, whole entry: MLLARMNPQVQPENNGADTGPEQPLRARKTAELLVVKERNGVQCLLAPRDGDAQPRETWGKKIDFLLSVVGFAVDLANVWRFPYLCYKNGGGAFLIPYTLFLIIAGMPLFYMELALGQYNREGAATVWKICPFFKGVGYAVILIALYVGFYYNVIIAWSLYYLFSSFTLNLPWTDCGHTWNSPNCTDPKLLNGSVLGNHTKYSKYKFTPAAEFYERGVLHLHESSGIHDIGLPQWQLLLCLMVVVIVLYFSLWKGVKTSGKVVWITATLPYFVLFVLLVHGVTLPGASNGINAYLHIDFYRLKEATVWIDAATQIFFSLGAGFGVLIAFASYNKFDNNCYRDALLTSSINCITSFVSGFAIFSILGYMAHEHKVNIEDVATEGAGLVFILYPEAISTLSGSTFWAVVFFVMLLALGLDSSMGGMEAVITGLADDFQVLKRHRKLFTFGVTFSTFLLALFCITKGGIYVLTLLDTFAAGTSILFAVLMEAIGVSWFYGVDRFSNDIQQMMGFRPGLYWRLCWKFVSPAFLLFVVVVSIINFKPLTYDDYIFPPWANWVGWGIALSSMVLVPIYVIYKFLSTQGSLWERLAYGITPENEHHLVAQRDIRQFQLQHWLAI
UniProt P37288, whole entry: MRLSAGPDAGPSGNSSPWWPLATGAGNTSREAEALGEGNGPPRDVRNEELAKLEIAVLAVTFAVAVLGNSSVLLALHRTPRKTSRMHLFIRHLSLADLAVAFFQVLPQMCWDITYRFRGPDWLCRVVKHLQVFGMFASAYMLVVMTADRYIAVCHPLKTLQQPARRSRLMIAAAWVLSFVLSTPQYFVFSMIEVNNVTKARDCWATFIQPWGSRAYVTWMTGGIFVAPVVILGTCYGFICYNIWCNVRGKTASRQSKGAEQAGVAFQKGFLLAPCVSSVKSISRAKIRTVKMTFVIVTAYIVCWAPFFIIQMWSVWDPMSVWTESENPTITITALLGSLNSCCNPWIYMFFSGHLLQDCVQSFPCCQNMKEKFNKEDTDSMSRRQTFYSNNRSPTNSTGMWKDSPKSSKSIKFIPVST
UniProt P20309, whole entry: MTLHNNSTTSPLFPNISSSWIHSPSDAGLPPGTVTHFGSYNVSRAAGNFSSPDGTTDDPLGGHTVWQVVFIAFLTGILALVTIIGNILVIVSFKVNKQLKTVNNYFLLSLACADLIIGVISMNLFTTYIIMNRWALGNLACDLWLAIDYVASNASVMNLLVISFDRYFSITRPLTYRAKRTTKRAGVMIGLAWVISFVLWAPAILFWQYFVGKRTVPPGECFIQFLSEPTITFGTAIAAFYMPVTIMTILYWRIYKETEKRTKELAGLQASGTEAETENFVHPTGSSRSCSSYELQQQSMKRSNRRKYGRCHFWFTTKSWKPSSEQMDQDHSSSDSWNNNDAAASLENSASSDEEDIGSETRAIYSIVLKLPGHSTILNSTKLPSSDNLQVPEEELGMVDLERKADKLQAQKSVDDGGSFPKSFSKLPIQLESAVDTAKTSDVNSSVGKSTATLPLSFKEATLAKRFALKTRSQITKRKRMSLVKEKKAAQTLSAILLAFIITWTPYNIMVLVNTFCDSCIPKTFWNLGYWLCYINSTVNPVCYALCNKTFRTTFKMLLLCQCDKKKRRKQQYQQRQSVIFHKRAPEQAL
UniProt P21554, whole entry: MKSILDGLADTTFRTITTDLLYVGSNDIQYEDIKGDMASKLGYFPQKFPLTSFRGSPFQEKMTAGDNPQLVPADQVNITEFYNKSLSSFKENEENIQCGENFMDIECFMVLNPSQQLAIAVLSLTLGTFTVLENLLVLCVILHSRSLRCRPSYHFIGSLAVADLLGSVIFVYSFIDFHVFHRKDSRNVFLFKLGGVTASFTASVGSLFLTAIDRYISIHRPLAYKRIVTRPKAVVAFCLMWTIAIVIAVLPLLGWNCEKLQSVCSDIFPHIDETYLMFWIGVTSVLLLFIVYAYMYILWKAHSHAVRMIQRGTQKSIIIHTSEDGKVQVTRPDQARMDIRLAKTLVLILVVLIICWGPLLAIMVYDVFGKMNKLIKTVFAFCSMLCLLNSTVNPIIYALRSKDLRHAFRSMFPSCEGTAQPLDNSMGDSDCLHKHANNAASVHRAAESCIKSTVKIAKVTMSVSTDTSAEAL
UniProt Q08499, 303-809 limits assumed: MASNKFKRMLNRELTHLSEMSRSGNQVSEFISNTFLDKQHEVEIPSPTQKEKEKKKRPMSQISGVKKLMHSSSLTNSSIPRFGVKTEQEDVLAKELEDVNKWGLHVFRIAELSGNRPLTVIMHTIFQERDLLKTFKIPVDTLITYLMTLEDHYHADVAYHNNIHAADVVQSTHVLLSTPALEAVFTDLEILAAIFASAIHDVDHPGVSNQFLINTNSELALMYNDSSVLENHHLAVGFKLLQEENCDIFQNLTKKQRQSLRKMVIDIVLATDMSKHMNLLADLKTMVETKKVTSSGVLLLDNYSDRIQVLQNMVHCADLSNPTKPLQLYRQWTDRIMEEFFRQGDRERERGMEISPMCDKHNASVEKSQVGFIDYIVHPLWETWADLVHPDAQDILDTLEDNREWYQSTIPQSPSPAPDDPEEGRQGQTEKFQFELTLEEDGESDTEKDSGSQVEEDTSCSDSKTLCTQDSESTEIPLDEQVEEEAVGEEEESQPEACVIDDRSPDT

How the values were obtained:
kappa (KOP) [1] = molecular target: T1, kappa (KOP) (Homo sapiens, UniProt P41145)
5-HT Transporter = 5-HT Transporter (Homo sapiens, UniProt P31645)
AR = molecular target: T2, AR (Homo sapiens, UniProt P10275, T878A)
T2 sequence (P10275 1-920 T878A): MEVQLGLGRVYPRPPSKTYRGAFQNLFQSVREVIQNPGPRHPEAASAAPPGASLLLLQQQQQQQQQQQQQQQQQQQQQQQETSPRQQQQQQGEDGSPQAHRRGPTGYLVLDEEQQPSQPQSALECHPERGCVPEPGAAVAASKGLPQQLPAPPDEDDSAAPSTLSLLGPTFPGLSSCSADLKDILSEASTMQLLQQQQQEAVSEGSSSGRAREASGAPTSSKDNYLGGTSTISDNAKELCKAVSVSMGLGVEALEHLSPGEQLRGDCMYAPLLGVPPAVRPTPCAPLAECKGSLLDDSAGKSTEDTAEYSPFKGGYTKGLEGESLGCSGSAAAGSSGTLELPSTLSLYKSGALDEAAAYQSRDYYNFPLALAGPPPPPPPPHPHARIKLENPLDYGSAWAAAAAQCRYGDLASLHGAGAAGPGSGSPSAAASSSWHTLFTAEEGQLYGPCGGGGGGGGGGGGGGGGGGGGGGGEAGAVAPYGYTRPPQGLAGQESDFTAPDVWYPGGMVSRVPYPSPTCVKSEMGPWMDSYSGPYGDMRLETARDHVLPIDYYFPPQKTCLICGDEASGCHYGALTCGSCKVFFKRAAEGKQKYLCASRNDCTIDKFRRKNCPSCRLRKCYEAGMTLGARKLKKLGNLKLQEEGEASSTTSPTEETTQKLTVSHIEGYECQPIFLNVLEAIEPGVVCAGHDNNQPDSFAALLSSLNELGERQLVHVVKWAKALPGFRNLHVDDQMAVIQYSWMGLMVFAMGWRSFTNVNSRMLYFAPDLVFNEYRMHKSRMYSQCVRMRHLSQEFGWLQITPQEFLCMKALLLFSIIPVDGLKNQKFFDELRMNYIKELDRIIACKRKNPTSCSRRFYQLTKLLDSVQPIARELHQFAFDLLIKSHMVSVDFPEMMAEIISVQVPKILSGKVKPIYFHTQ

5-HT (1B) = 5-HT (1B) (Rattus norvegicus, UniProt P28564)
Beta1 [2] = molecular target: T3, Beta1 (Homo sapiens, UniProt P08588)
PDE3A = PDE3A (Homo sapiens, UniProt Q14432)
GR = molecular target: T4, GR (Homo sapiens, UniProt P04150)
T4 sequence (P04150 1-777): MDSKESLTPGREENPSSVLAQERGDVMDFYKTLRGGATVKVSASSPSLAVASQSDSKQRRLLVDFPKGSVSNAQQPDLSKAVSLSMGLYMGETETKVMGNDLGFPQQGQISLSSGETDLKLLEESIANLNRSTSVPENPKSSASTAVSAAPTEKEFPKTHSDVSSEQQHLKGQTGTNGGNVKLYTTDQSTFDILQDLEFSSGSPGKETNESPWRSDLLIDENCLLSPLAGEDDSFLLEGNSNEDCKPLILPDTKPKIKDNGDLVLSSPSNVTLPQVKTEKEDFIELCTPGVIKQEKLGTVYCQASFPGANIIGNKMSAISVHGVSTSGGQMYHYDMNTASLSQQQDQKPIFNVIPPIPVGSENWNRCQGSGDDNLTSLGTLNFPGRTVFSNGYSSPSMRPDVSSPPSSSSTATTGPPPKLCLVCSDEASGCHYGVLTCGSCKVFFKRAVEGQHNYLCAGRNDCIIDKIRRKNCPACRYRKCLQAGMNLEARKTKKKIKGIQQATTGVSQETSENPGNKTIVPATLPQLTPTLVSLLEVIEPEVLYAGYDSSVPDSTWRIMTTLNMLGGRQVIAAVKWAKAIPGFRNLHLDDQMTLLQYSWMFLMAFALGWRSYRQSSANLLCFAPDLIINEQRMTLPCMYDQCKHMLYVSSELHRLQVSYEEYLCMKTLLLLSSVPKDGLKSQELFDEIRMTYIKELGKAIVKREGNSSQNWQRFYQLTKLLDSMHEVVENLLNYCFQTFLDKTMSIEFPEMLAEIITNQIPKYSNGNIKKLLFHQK

N- neuronal a4b2 = N- neuronal a4b2 (Homo sapiens, UniProt P17787+P43681)
NT = NT (Homo sapiens, UniProt P23975)
V1a = V1a (Homo sapiens, UniProt P37288)
5-HT (2B) = 5-HT (2B) (Homo sapiens, UniProt P41595)
Beta2 = Beta2 (Homo sapiens, UniProt P07550)
D1 = D1 (Homo sapiens, UniProt P21728)
Mu (MOP) = Mu (MOP) (Homo sapiens, UniProt P35372)
Beta1 [3] = molecular target: T3, Beta1; remark: listed apart in the source
M3 = M3 (Homo sapiens, UniProt P20309)
kappa (KOP) [4] = molecular target: T1, kappa (KOP); remark: listed apart in the source
CB1 = CB1 (Homo sapiens, UniProt P21554)
PDE4D2 = PDE4D2 (Homo sapiens, UniProt Q08499)
H1 = H1 (Homo sapiens, UniProt P35367)

Row | SMILES | Cerep SafetyScreen 44 % Inhibition kappa (KOP) (kappa (KOP) [1]) | Cerep SafetyScreen 44 % Inhibition 5-HT Transporter (5-HT Transporter) | Cerep SafetyScreen 44 % Inhibition AR (AR) | Cerep SafetyScreen 44 % Inhibition 5-HT (1B) (5-HT (1B)) | Cerep SafetyScreen 44 % Inhibition Beta1 (Beta1 [2]) | Cerep SafetyScreen 44 % Inhibition PDE3A (PDE3A) | Cerep SafetyScreen 44 % Inhibition GR (GR) | Cerep SafetyScreen 44 % Inhibition N- neuronal a4b2 (N- neuronal a4b2) | Cerep SafetyScreen 44 % Inhibition NT (NT) | Cerep SafetyScreen 44 % Inhibition V1a (V1a) | Cerep SafetyScreen 44 % Inhibition 5-HT (2B) (5-HT (2B)) | Cerep SafetyScreen 44 % Inhibition Beta2 (Beta2) | Cerep SafetyScreen 44 % Inhibition D1 (D1) | Cerep SafetyScreen 44 % Inhibition Mu (MOP) (Mu (MOP)) | Cerep SafetyScreen 44 % Inhibition Beta1 (Beta1 [3]) | Cerep SafetyScreen 44 % Inhibition M3 (M3) | Cerep SafetyScreen 44 % Inhibition kappa (KOP) (kappa (KOP) [4]) | Cerep SafetyScreen 44 % Inhibition CB1 (CB1) | Cerep SafetyScreen 44 % Inhibition PDE4D2 (PDE4D2) | Cerep SafetyScreen 44 % Inhibition H1 (H1)
1 | C=C1NC(=O)[C@H](Cc2c[nH]c3ccccc23)NC(=O)[C@H](NC(=O)[C@H](CCCCN)NC(=O)[C@@H](N)Cc2ccccc2)CSC[C@@H](C(=O)N[C@H]2C(=O)N3CCC[C@H]3C(=O)NCC(=O)N[C@H](C(=O)N[C@@H](C)C(=O)N[C@@H](CCCNC(=N)N)C(=O)N/C(=C\C)C(=O)NCC(=O)N[C@@H]3CSC[C@@H]4NC(=O)[C@H](Cc5ccc(O)cc5)NC(=O)[C@@H](CS/C=C\NC4=O)NC(=O)[C@H](CC(N)=O)NC(=O)[C@H](Cc4ccc(O)cc4)NC3=O)CS[C@H]2C)NC(=O)[C@H](CC(C)C)NC1=O [F17Y] | 20% | -9% | -7% | -5% | 3% | 9% | – | – | – | – | – | – | – | – | – | – | – | – | – | –
2 | C=C1NC(=O)[C@H](Cc2c[nH]c3ccccc23)NC(=O)[C@H](NC(=O)[C@H](CCCCN)NC(=O)[C@@H](N)Cc2ccccc2)CSC[C@@H](C(=O)N[C@H]2C(=O)N3CCC[C@H]3C(=O)NCC(=O)N[C@H](C(=O)N[C@@H](C)C(=O)N[C@@H](CCCNC(=N)N)C(=O)N/C(=C\C)C(=O)NCC(=O)N[C@@H]3CSC[C@@H]4NC(=O)[C@H](Cc5ccc(O)cc5)NC(=O)[C@@H](CS/C=C\NC4=O)NC(=O)[C@H](CC(N)=O)NC(=O)[C@H](Cc4ccccc4)NC3=O)CS[C@H]2C)NC(=O)[C@H](C)NC1=O [L6A] | – | – | – | – | – | – | -1% | 0% | 4% | 19% | 0% | -1% | -4% | 15% | -8% | -4% | 11% | 11% | 3% | -3%
3 | C=C1NC(=O)[C@H](Cc2c[nH]c3ccccc23)NC(=O)[C@H](NC(=O)[C@H](CCCCN)NC(=O)[C@@H](N)Cc2ccccc2)CSC[C@@H](C(=O)N[C@H]2C(=O)N3CCC[C@H]3C(=O)NCC(=O)N[C@H](C(=O)N[C@@H](C)C(=O)N[C@@H](C)C(=O)N/C(=C\C)C(=O)NCC(=O)N[C@@H]3CSC[C@@H]4NC(=O)[C@H](Cc5ccc(O)cc5)NC(=O)[C@@H](CS/C=C\NC4=O)NC(=O)[C@H](CC(N)=O)NC(=O)[C@H](Cc4ccccc4)NC3=O)CS[C@H]2C)NC(=O)[C@H](CC(C)C)NC1=O [R13A] | -4% | -3% | -5% | -29% | 2% | -4% | – | – | – | – | – | – | – | – | – | – | – | – | – | –
